Earlier results, collected in US20120130144A1, “TREATMENT OF LUNG CANCER WITH A NITROBENZAMIDE COMPOUND IN COMBINATION WITH A GROWTH FACTOR INHIBITOR” (BiPar Sciences, Inc., priority 2009, published 2012).

Test system: NSCLC cells with mutant EGFR
Conditions: NSCLC cells with mutant but not wild-type EGFR; cited from earlier work

SMILES: COc1cc2ncnc(Nc3ccc(F)c(Cl)c3)c2cc1OCCCN1CCOCC1 [GFT, gefitinib]
- apoptosis following gefitinib treatment: undergo apoptosis
